From ChEMBL document CHEMBL1157627, “A novel insulin secretagogue based on a dinucleoside polyphosphate scaffold” (J Med Chem, 2010) come the findings set out here.

The chains behind the UniProt entries cited, without tags or fusion partners. Where a name states a change or a piece, a line headed by the entry shows the natural chain unless it says otherwise.
UniProt P47900: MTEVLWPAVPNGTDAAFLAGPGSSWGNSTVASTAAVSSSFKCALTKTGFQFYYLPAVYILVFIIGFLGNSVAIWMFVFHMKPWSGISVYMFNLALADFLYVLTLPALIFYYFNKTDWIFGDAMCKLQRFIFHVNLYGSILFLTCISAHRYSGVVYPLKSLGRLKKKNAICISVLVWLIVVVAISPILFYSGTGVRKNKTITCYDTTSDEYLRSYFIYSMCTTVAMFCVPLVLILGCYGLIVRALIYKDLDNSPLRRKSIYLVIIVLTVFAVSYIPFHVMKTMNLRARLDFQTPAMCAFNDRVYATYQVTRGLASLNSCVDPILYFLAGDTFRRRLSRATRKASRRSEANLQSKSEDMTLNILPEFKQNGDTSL

This assay addresses P2Y purinoceptor 1 (Homo sapiens, UniProt P47900). The assay can be described thus: Agonist activity at G-protein coupled P2Y1 receptor expressed in human 1321N1 cells assessed as increase in calcium by Fura2 assay. Format: functional, cell-based. In a few lines: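 Human 1321N1 astrocytoma cells stably expressing turkey P2Y1 receptor, grown in DMEM with 5% FBS and G-418. Cell suspensions loaded with fura-2; [Ca2+]i read by dual-excitation spectrofluorometry at 37 °C in 10 mM HEPES-buffered saline pH 7.4 with 1 mM CaCl2 and 1 mM MgCl2. EC50 from maximal [Ca2+]i rise across concentrations; three experiments on separate days.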

pEC50: −log10 of the molar value.

For the molecule `CSc1nc(N)c2ncn([C@@H]3O[C@H](COP(=O)(O)OP(=O)(O)O)[C@@H](O)[C@H]3O)c2n1` (single isomer, unassigned), the pEC50 was 8.60.

As usually defined, the pEC50 is −log10 of the EC50, conventionally taken in molar units.
